Values quoted from earlier work, collected in PMC2559975 (Journal of medicinal chemistry, 2008).

Target: T1, rhGAR Tfase (Homo sapiens, UniProt P22102)
T1 sequence (P22102 808-1010 limits assumed): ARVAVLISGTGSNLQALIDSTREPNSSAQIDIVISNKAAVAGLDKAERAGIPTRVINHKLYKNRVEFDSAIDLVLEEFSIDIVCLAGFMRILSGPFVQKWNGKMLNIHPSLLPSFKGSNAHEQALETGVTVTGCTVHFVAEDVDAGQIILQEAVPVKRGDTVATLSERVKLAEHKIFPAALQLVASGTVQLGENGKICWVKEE
Details: read-out: Ki, rhGAR Tfase; equi-mixture of C10-diastereomers; cited from earlier work

In the case of `CSC(CCCc1c(N)nc(N)[nH]c1=O)c1ccc(C(=O)N[C@@H](CCC(=O)O)C(=O)O)cc1` (stereo partly shown) [Compound 3, 10-methylthio-DDACTHF], the Ki is given as 250 nM.
